In assay [1] the target is T1, recombinant HIV-1 protease (Human immunodeficiency virus type 1 group M subtype B, UniProt P04585).
T1 construct: Enzyme: recombinant HIV-1 protease expressed in E. Coli; purchased Bachem California, Inc. H-9040; host or cells: E. coli
As to the kind of experiment: biochemical.

Assay [2] concerns wild-type HIV-1 strain IIIB. The following applies: read-out: Anti-HIV-1 Cell Culture Activity EC50.

Like-named read-outs stand apart in the source and are kept apart here. Where only a bound is given, the exact number is not on record here.

`CC(C)CN(CC(O)C(Cc1ccc(OCP(=O)(OCc2ccccc2)OCc2ccccc2)cc1)NC(=O)OC1COC2OCCC12)S(=O)(=O)c1ccc(C#N)cc1` (stereo not drawn): the Ki in assay [1] (Ki) lay in the range of 0.01 to 0.1 nM.
Regarding `CCOC(=O)C(C)OP(=O)(COc1ccc(C[C@H](NC(=O)O[C@H]2CO[C@H]3OCC[C@H]32)[C@H](O)CN(CC(C)C)S(=O)(=O)c2ccc(OC)cc2)cc1)Oc1ccccc1` (stereo partly drawn) [GS-17394], in assay [2], the EC50 is 20 ± 7 nM.
Turning to `COc1ccc(S(=O)(=O)N(CCN(C)C)CC(O)C(Cc2ccc(O)cc2)NC(=O)OC2COC3OCCC23)cc1` (stereo not drawn), the Ki in assay [1] (Ki) is above 1 nM.
As for `CCOP(=O)(COc1ccc(CC(NC(=O)OC2COC3OCCC23)C(O)CN(CC(C)C)S(=O)(=O)c2ccc([N+](=O)[O-])cc2)cc1)OCC` (stereo not drawn), the Ki in assay [1] (Ki) was 0.01 to 0.1 nM.
As to `CC(C)CN(CC(O)C(Cc1ccc(OCP(=O)(O)OC(C)C(=O)O)cc1)NC(=O)OC1COC2OCCC12)S(=O)(=O)c1ccccc1` (stereo not drawn), the Ki in assay [1] (Ki) lay within 0.01 to 0.1 nM.
The same measure, in the same setting: the value for `CC(C)CN(CC(O)C(Cc1ccc(OCP(=O)(OCc2ccccc2)OCc2ccccc2)cc1)NC(=O)OC1COC2OCCC12)S(=O)(=O)c1ccc(C(F)(F)F)cc1` (stereo not drawn) was 0.01 to 0.1 nM.
Turning to `CCOC(=O)C(C)NP(=O)(COc1ccc(CC(NC(=O)OC2COC3OCCC23)C(O)CN(CC(C)C)S(=O)(=O)c2ccc(OC)cc2)cc1)Oc1ccccc1` (stereo not drawn) [GS-16571], the EC50 in assay [2] was 15 ± 5 nM.
For the compound `CC(C)CN(CC(O)C(Cc1ccccc1)NC(=O)OC1COC2OCCC12)S(=O)(=O)c1ccc(OCP(=O)(O)NC(C)C(=O)O)cc1` (stereo not drawn) [OH, Ala-OH], the Ki in assay [1] (Ki) was in the range of 0.01 to 0.1 nM.
With `CCCCOC(=O)C(C)NP(=O)(COc1ccc(CC(NC(=O)OC2COC3OCCC23)C(O)CN(CC(C)C)S(=O)(=O)c2ccc(OC)cc2)cc1)NC(C)C(=O)OCCCC` (stereo not drawn) [Example 16d], in assay [1] (read-out: HIV-1 protease inhibition Ki), the Ki came to 0.0187 ± 0.00304 nM.

These data come from patent US20070010489A1 (priority 2002, published 2007).
